{"source": "patent US20210106700A1", "about": "“Fractionated Dosing of a Phospholipid Ether Analog for the Treatment of Cancer” (Cellectar Biosciences, Inc., priority 2018, published 2021)", "assay": "Clinical trial: single bolus (Cohort 4) versus fractionated dose (Cohort 5), adverse events and efficacy", "assay_type": "in vivo, human", "conditions": "second row of Table 2, fractionated dose (Cohort 5 per text)", "from_the_text": "However even though more drug was provided to the patient the average grade of adverse events reduced and the median grade remained the same. […] Median overall survival increased from 6.5 months (bolus dose) to 7.4 months (fractionated dose) with assessment of the median overall survival in the fractionated dose group still ongoing. Average progression free survival increased from 2.8 to 2.9 months, respectively, again with assessment ongoing in the fractionated dose group. Average reduction in surrogate markers of efficacy were greater between the cohorts with patients receiving a single bolus dose experience on average a 29% reduction in surrogate markers versus an average 40% reduction for those receiving a fractionated dose.\nDosing is based upon body surface area or BSA in millicuries/meter squared (mCi/m^2). Patients either received a single 30 minute infusion of 31.25 mCi/m^2 on day 1 or a 30 minute fractionated infusion dose of 15.625 mCi/m^2 on day 1 and then repeated on day 8."}
{"substance": "^131I-labeled 18-(p-iodo-phenyl)octadecyl phosphocholine [CLR 131]", "values": [{"measurement": "Adverse Events Average Grade", "value": "2.95 ± 1.10"}]}
